# Assay results published in publication PMC6962383.
# Molecular target: bovine trypsin (Bos taurus) (UniProt P00760)
# Assay: yeast surface display with four-gate FACS sorting and deep sequencing, enrichment normalized to ddG with purified-protein data
row,Substance,ddG [kcal/mol]
1,A16C (from UniProt P00974),9.65
2,A16D (from UniProt P00974),9.13
3,A16E (from UniProt P00974),8.65
4,A16F (from UniProt P00974),10.1
5,A16H (from UniProt P00974),8.84
6,A16I (from UniProt P00974),5.09
7,A16K (from UniProt P00974),9.83
8,A16M (from UniProt P00974),3.96
9,A16N (from UniProt P00974),8.97
10,A16P (from UniProt P00974),9.01
11,A16Q (from UniProt P00974),6.73
12,A16T (from UniProt P00974),4.85
13,A16Y (from UniProt P00974),8.04
14,G12C (from UniProt P00974),6.81
15,G12D (from UniProt P00974),4.71
16,G12E (from UniProt P00974),4.87
17,G12F (from UniProt P00974),2.59
18,G12H (from UniProt P00974),4.53
19,G12I (from UniProt P00974),2.51
20,G12K (from UniProt P00974),4.95
21,G12L (from UniProt P00974),3.65
22,G12M (from UniProt P00974),4.26
23,G12N (from UniProt P00974),4.36

row,Substance,ddG [kcal/mol]
1,G12P (from UniProt P00974),3.71
2,G12Q (from UniProt P00974),4.07
3,G12R (from UniProt P00974),4.32
4,G12S (from UniProt P00974),3.09
5,G12T (from UniProt P00974),3.86
6,G12V (from UniProt P00974),3.24
7,G12W (from UniProt P00974),2.49
8,G12Y (from UniProt P00974),3.77
9,G36C (from UniProt P00974),9.1
10,G36D (from UniProt P00974),4.57
11,G36E (from UniProt P00974),7.66
12,G36F (from UniProt P00974),3.3
13,G36H (from UniProt P00974),4.26
14,G36I (from UniProt P00974),8.79
15,G36K (from UniProt P00974),4.63
16,G36L (from UniProt P00974),7.69
17,G36M (from UniProt P00974),4.4
18,G36N (from UniProt P00974),4.68
19,G36P (from UniProt P00974),8.35
20,G36Q (from UniProt P00974),4.88
21,G36R (from UniProt P00974),3.54
22,G36S (from UniProt P00974),3.42
23,G36T (from UniProt P00974),4.54

row,Substance,ddG [kcal/mol]
1,G36V (from UniProt P00974),6.93
2,G36W (from UniProt P00974),6.11
3,G36Y (from UniProt P00974),4.23
4,G37A (from UniProt P00974),1.47
5,G37C (from UniProt P00974),7.33
6,G37D (from UniProt P00974),7.4
7,G37E (from UniProt P00974),7.31
8,G37F (from UniProt P00974),3.37
9,G37H (from UniProt P00974),3.53
10,G37I (from UniProt P00974),6.41
11,G37K (from UniProt P00974),3.41
12,G37L (from UniProt P00974),1.95
13,G37M (from UniProt P00974),1.36
14,G37N (from UniProt P00974),2.1
15,G37P (from UniProt P00974),10.9
16,G37Q (from UniProt P00974),3.9
17,G37R (from UniProt P00974),3.4
18,G37S (from UniProt P00974),3.01
19,G37T (from UniProt P00974),4
20,G37V (from UniProt P00974),5.68
21,G37W (from UniProt P00974),5.24
22,G37Y (from UniProt P00974),4.18
23,I18C (from UniProt P00974),4.95

row,Substance,ddG [kcal/mol]
1,I18D (from UniProt P00974),4.36
2,I18E (from UniProt P00974),4.14
3,I18F (from UniProt P00974),1.81
4,I18G (from UniProt P00974),4.37
5,I18H (from UniProt P00974),3.4
6,I18K (from UniProt P00974),3.89
7,I18L (from UniProt P00974),3.33
8,I18M (from UniProt P00974),3.24
9,I18N (from UniProt P00974),4.24
10,I18P (from UniProt P00974),5.14
11,I18Q (from UniProt P00974),3.4
12,I18R (from UniProt P00974),3.48
13,I18S (from UniProt P00974),4.84
14,I18T (from UniProt P00974),4.57
15,I18V (from UniProt P00974),2.97
16,I18W (from UniProt P00974),2.53
17,I18Y (from UniProt P00974),2.17
18,K15C (from UniProt P00974),11.6
19,K15P (from UniProt P00974),9.77
20,P13A (from UniProt P00974),3.77
21,P13C (from UniProt P00974),7.04
22,P13D (from UniProt P00974),4.31
23,P13E (from UniProt P00974),4.4

row,Substance,ddG [kcal/mol]
1,P13F (from UniProt P00974),0.452
2,P13G (from UniProt P00974),4.27
3,P13H (from UniProt P00974),3.54
4,P13I (from UniProt P00974),1.83
5,P13K (from UniProt P00974),3.05
6,P13L (from UniProt P00974),2.75
7,P13M (from UniProt P00974),0.628
8,P13N (from UniProt P00974),3.64
9,P13Q (from UniProt P00974),2.75
10,P13R (from UniProt P00974),1.53
11,P13S (from UniProt P00974),4.04
12,P13T (from UniProt P00974),4.01
13,P13V (from UniProt P00974),1.68
14,P13W (from UniProt P00974),1.08
15,P13Y (from UniProt P00974),1.08
16,R17A (from UniProt P00974),2.18
17,R17C (from UniProt P00974),3.97
18,R17D (from UniProt P00974),4.77
19,R17E (from UniProt P00974),5.11
20,R17F (from UniProt P00974),3.03
21,R17G (from UniProt P00974),4.16
22,R17H (from UniProt P00974),3.47
23,R17I (from UniProt P00974),1.21

row,Substance,ddG [kcal/mol]
1,R17K (from UniProt P00974),4.11
2,R17L (from UniProt P00974),-0.314
3,R17M (from UniProt P00974),-0.0474
4,R17N (from UniProt P00974),3.19
5,R17P (from UniProt P00974),9.82
6,R17Q (from UniProt P00974),3.69
7,R17S (from UniProt P00974),3.17
8,R17T (from UniProt P00974),3.88
9,R17V (from UniProt P00974),2.33
10,R17W (from UniProt P00974),4.74
11,R17Y (from UniProt P00974),2.78
12,R39A (from UniProt P00974),2.45
13,R39C (from UniProt P00974),6.25
14,R39D (from UniProt P00974),5.43
15,R39E (from UniProt P00974),6.12
16,R39F (from UniProt P00974),2.67
17,R39G (from UniProt P00974),2.29
18,R39H (from UniProt P00974),2.88
19,R39K (from UniProt P00974),3.47
20,R39L (from UniProt P00974),3.57
21,R39M (from UniProt P00974),3.61
22,R39N (from UniProt P00974),4.06
23,R39P (from UniProt P00974),3.87

row,Substance,ddG [kcal/mol]
1,R39Q (from UniProt P00974),3.62
2,R39S (from UniProt P00974),3.5
3,R39T (from UniProt P00974),3.93
4,R39V (from UniProt P00974),3.68
5,R39W (from UniProt P00974),2.9
6,R39Y (from UniProt P00974),3.31
7,T11A (from UniProt P00974),2.03
8,T11C (from UniProt P00974),3.48
9,T11D (from UniProt P00974),3.52
10,T11E (from UniProt P00974),2.48
11,T11F (from UniProt P00974),2.38
12,T11G (from UniProt P00974),1.39
13,T11H (from UniProt P00974),4.27
14,T11I (from UniProt P00974),1.92
15,T11K (from UniProt P00974),3.71
16,T11L (from UniProt P00974),2.44
17,T11M (from UniProt P00974),2.66
18,T11P (from UniProt P00974),3.78
19,T11Q (from UniProt P00974),3.76
20,T11R (from UniProt P00974),2.35
21,T11S (from UniProt P00974),2.96
22,T11V (from UniProt P00974),2.44
